Here are results for one substance from paper PMC11209756.

For the experiment, the target named is ^HCCCT1^CBP368 holocomplex (human) (UniProt P17987). As to the kind of experiment: native gel or EMSA.

Substance “^35S-HIS-ACTB (denatured β-actin) (from UniProt P60709 1-375) (natural protein)” displayed a percent of binding relative to TRiC of 40%.
